Reference: patent US20220233650A1

What was measured:
Test in all cases: cell-based or functional assay
[1] = target: FcγR1 (CD64) on human CD14+ monocytes (human) (UniProt P12314)
[2] = target: FcγR2 (CD32) on human CD14+ monocytes (human)
[3] = target: FcγR3 (CD16) on human CD14+ monocytes (human)
[4] = target: FcγRs

percent of cells characterized as osteoclasts after rFVIIIFc with an Anti-CD64 antibody Fab (FIG. 18B) [1]: 2.73% | percent of cells characterized as osteoclasts after rFVIIIFc with an Anti-CD64 antibody Fab (FIG. 22B) [1]: 3.02% | percent of cells characterized as osteoclasts after rFVIIIFc with an Anti-CD32 antibody (FIG. 19B and FIG. 23B) [2]: 17% | percent of cells characterized as osteoclasts after rFVIIIFc with an Anti-CD16 antibody (FIG. 20B) [3]: 4.11% | percent of cells characterized as osteoclasts after rFVIIIFc with an Anti-CD16 antibody (printed as FIG. 24A) [3]: 4.03% | IC50 of the inhibition of osteoclast formation (CD51/61 high cells by flow cytometry, normalized to vehicle control) [4]: 7.49 nM | percent of cells characterized as CD51/61 high osteoclasts (FIG. 17B) [4]: 5.54% | percent of cells characterized as CD51/61 high osteoclasts (FIG. 21B) [4]: 5.57% | percent of cells differentiated into osteoclasts (CD51/61 high, CD14 low) after 0.7 nM rFVIIIFc [4]: 62.6% | percent of cells differentiated into osteoclasts (CD51/61 high, CD14 low) after 75 nM rFVIIIFc [4]: 1.44%
Substance: recombinant Factor VIII Fc fusion protein (rFVIIIFc) (from UniProt P0DOX5 223-449)
